Nrf2 block: blocks Nrf2 signaling; Potency, µM (titrated, usually from 46 µM), usual class: inhibitors; 360,000 compounds, 2.1% hits; A549 ARE-Fluc reporter, luciferase luminescence, 18-24 h; further: nearly all actives have a fitted effect of over 60% in size
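Concentration-response testing used A549 ARE_Fluc cells at 5000 cells/well. Following an 18-24 h compound incubation, viability was read by fluorescence (Ex 405/Em 525) and luciferase output by luminescence.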
Nrf2 ARE act: activators of Nrf2 (ARE) signaling; AID 624171; Potency, µM (top dose mostly 46.1 µM), hits mostly activators; AREc32 ARE-luciferase reporter (MCF7-derived line), luminescence, 24 h; 410,000 compounds, 0.31% hits; further: nearly all actives have a fitted effect of over 65% in size
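Each well held 1000 AREc32 cells, which were incubated with compound for 24 hr at 37 deg C after overnight attachment, and ARE reporter activity was quantified by firefly luciferase luminescence.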
A549 viability: kills or reduces viability of A549 cells in Nrf2 counter-screen; Potency, µM (doses to about 46 µM), usual class: inhibitors; A549 ARE-Fluc cells, CellTiter-Fluor viability, 18-24 h; 390,000 compounds, 0.16% hits
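A549 ARE_Fluc cells in 5% FBS OPTI-MEM were exposed to compounds in concentration-response for 18-24 h at 37 deg C. Viability was read by CellTiter-Fluor fluorescence (Ex 405/Em 525) after 30 min, before the luciferase read.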
miR-21 FLuc: miR-21 reporter, rising signal | HeLa miR-21 FLuc reporter, luciferase, 48 h | Potency, µM (top dose mostly 38.3 µM) | 340,000 tested, under 10 active | AID 2288; active = well fitted rising curve with a large enough effect; inconclusive = small, poorly fitted or top-dose-only effect; inactive = no such curve, though single readings can be large or run the other way;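 note: miR-21 action dims this reporter so a rising signal means less miR-21 action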
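HeLa cells stably expressing CMV-driven firefly luciferase with a downstream miR-21 binding sequence, endogenously expressing miR-21, were treated with titrations (up to about 40uM final) for 48 hours at 37 degree Celsius. Luciferase luminescence was read after lysis.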
B2AR arrestin: beta2AR (human) beta-arrestin recruitment activity; 330,000 compounds, 0.02% hits; AID 492947; P07550; beta-arrestin recruitment to beta2AR, cell-based reporter; Potency, µM (doses to about 46.1 µM), actives largely listed as activators; further: nearly all actives have a fitted effect of over 65% in size
Numbers stand for hits; n = inactive; u = inconclusive; x = no result. Compounds with a hit are over-represented: about 2.2% of the library has one in this group of screens. Unless noted, the call rests on the fitted dose curve; in most records, active means well fitted curve in the direction sought with a large enough effect; inconclusive means small, poorly fitted or top-dose-only effect, or another doubt; inactive means no such curve, though single readings can be large; an effect the other way counts as inactive or inconclusive.

SMILES	Nrf2 block	Nrf2 ARE act	A549 viability	miR-21 FLuc	B2AR arrestin
COc1ccc(Cc2[nH]n3c(=O)cc(C(C)C)nc3c2-c2ccccc2)cc1	11.6µM	n	u	u	n
CCN(C(=O)CSc1nc2ccccc2n1CC(=O)NCc1ccc(OC)cc1)c1ccccc1	x	n	n	n	x
O=C(Nc1cc2c(cc1Br)OCCO2)c1cccs1	u	12.6µM	n	n	n
O=C(O)c1cc(F)c(S(=O)(=O)N2CCN(S(=O)(=O)c3ccc4c(c3)OCCO4)CC2)cc1F	u	x	n	x	x
Cc1ccc(COC(=O)c2nn(C)c(=O)c3ccccc23)cc1	23.1µM	n	n	n	n
Cn1nc(C(=O)OCc2ccc(F)cc2)c2ccccc2c1=O	u	n	n	n	n
Cn1nc(C(=O)NCc2ccccn2)c2ccccc2c1=O	5.8µM	n	n	n	n
COc1cccc(S(=O)(=O)N2CCN(c3nc(-c4cccs4)nc4ccccc34)CC2)c1	u	x	n	x	x
Cc1ccc(OCCSc2nc3ccccc3n2CC(=O)N2CCCCC2)c(C)c1	u	n	n	n	x
Cc1cccc(-c2nc3cc([N+](=O)[O-])ccc3o2)c1	u	10µM	n	n	n
CCCCOc1cccc(C(=O)Nc2cccc(-c3nc4ncccc4o3)c2C)c1	16.4µM	n	n	u	x
CCCCC(=O)Nc1cccc(-c2nc3ncccc3o2)c1C	n	n	n	n	n
Cc1nnc(-c2cccc(Br)c2)c2cn(-c3ccc(Br)cc3)nc12	14.6µM	n	n	n	n
Cc1ccc(Cn2c(=O)n(CCCCC(=O)NCCc3ccc(Cl)cc3)c(=O)c3ccccc32)cc1	n	n	n	n	x
Nc1c(Cl)ncnc1NCCc1ccc(O)cc1	5.8µM	n	n	n	n
O=C(NCC1OCCc2ccccc21)c1ccc(NC(=O)c2ccc(Cl)cc2)cc1 (centres undefined)	20.6µM	n	u	n	n
O=C(CCc1ccccc1)NCC1OCCc2ccccc21 (centres undefined)	n	n	n	n	n
O=C(NCC1OCCc2ccccc21)c1ccco1 (centres undefined)	u	11.2µM	n	n	n
Cc1ccc(C)c(NC(=O)COc2coc(CN3CCc4ccccc4C3)cc2=O)c1	10.3µM	n	n	x	n
Cn1cnnc1Sc1ccc(/C=C/C(=O)c2ccc(O)cc2)cc1[N+](=O)[O-]	18.4µM	u	u	n	n
CCC(C)(C)NC(=O)c1ccc(Sc2nncn2C)c([N+](=O)[O-])c1	n	n	n	n	n
COc1ccccc1OCc1cc(C(=O)N2CCN(C)C(c3ccccc3)C2)no1 (centres undefined)	u	n	n	n	n
CN1CCN(C(=O)c2cc(COc3ccc(F)cc3Cl)on2)CC1c1ccccc1 (centres undefined)	13µM	n	u	n	n
CCc1nnc2sc(-c3ccc(NC(=O)c4ccco4)cc3)nn12	n	n	n	n	n
CCc1nnc2sc(-c3ccc(NC(=O)c4ccc5c(c4)OCCO5)cc3)nn12	2.59µM	n	n	n	n
SMILES	Nrf2 block	Nrf2 ARE act	A549 viability	miR-21 FLuc	B2AR arrestin
CCc1ccc(NC(=O)CC2C(=O)N(c3cccc(OC)c3)C(=O)N2Cc2ccc(F)cc2)cc1 (centres undefined)	n	n	n	n	x
C/C(=N\NC(=O)Cc1ccccc1)c1cccs1	n	n	n	n	n
C/C(=N\NC(=O)Cn1c(C)nc2ccccc21)c1cccs1	16.4µM	n	n	n	n
O=C(O)c1ccc2c3c(ncnc13)-c1ccccc1C2=O	2.59µM	n	3.26µM	n	n
COc1ccc2nc(-c3cccc(F)c3)sc2c1	u	x	n	x	x
Cc1ccccc1C(=O)NNC(=S)NC(=O)c1ccc(Cl)cc1Cl	23.1µM	n	u	n	n
Cc1ccc(C(=O)NNC(=S)NC(=O)c2ccc(Cl)cc2)cc1	16.4µM	n	u	n	n
O=C(CCc1ccccc1)NNC(=S)NC(=O)c1ccc(Cl)cc1	20.6µM	n	n	n	n
O=C(NC(=S)NNC(=O)c1ccc(Cl)cc1Cl)c1cccnc1	n	n	n	n	n
CC(=O)NNC(=S)NC(=O)c1ccc(C)cc1	u	n	n	n	n
Clc1ccc(N2CCN(c3ccnc(Cl)n3)CC2)cc1	16.4µM	n	n	x	x
CSc1nccc(N2CCN(c3ccc(F)cc3)CC2)n1	u	n	n	n	n
C=CCn1c(CSCc2ccccc2)nnc1SCC(=O)N1CCN(c2ccccc2)CC1	u	n	n	n	n

Assay outcomes (PubChem BioAssay)
